The values below come from patent US20210179940A1, “WIDE TEMPERATURE RANGE AND HIGH PHOTOCHEMICAL STABILITY SMECTIC LIQUID CRYSTAL COMPOSITIONS WITH A MONOLAYER SMECTIC A PHASE (SMA1), METHOD OF OBTAINING THEREOF AND DEVICES UTILIZING THEREOF” (WOJSKOWA AKADEMIA TECHNICZNA, priority 2017, published 2021).

This data set can be described thus: solubility of ionic compounds in fluorobenzene. To be noted: 25° C. The procedure:
Fluorobenzene was used as solvent because it is chemically similar to the liquid crystalline composition used here.
The examination was made in the following way: always the same mole amount of a ionic compound (0.00004 mol) was placed in 2 cm^3 of fluorobenzene. The mixture was mixed to dissolve the compound or to obtain equilibrium between the saturated solution and the solid. When a part of the compound was dissolved only, the sample of the saturated solution was taken (0.5 ml). The solvent was evaporated to dryness, the rest was weighted. Knowing the residue amount, the solubility was calculated.

Take “complex of 18-crown-6 ether with sodium dodecyl-1-sulphonate [V.e12]”: the “solubility in C6H5F” value is reported as 0.019 mol/dcm^3.
